This is an account of results in PMC11154727, “Systematic Studies on the Anti-SARS-CoV-2 Mechanisms of Tea Polyphenol-Related Natural Products” (ACS Omega, 2024).

This assay concerns SARS-CoV-2 Delta virus (NTU92). The format is cell-based.

In turn, `O=c1c(O)cc([C@H]2Oc3cc(O)cc(O)c3C[C@H]2O)cc2c([C@H]3Oc4cc(O)cc(O)c4C[C@H]3O)cc(O)c(O)c12` [theaflavin] came in with a selectivity index of 9.0.
